Columns and labels:
Ts65Dn mice [1] = test: Novel object recognition test (recognition memory); conditions: constant (continuous) infusion
Ts65Dn mice [2] = test: Habituation/dishabituation test (ability to differentiate odors); conditions: constant (continuous) infusion

For “LUTRELEF®: a GnRH peptide of clinic use to restore fertility in patients with hypogonadotropic hypogonadism; GnRH acetate/diacetate (gonadorelin), Ferring Pharmaceuticals”, the cognitive performance (Ts65Dn mice [1]) was “no effect” and the olfactory performance (Ts65Dn mice [2]) was “no effect”.

Source: US20220202895A1, “PULSATIVE GNRH ADMINISTRATION FOR TREATING COGNITIVE DISORDERS” (INSERM (Institut National de la Santé et de la Recherche …, priority 2019, published 2022)
